Test [1] concerns the target porcine cardiac ventricular myosin (βmys) (porcine) (UniProt P79293).
Test [2] shares this target. This is another data set of the same source.

“rabbit skeletal actin (from UniProt P68135 1-377) (natural protein)” had an actin-activated myosin ATPase, Km (0.6 µM myosin titrated with 1–50 µM F-actin, 25 mM KCl, 21°C) in test [1] of 5.2 µM. Moreover, the actin-activated myosin ATPase, Km (value of the running text) in test [2] was 5.29 µM.

(Values after paper PMC6282072.)
